From PMC10747599 (Viruses, 2023)

System: SLEV
Assay: Viral load by plaque-forming assay, SLEV-infected Vero CCL81
Assay type: cell-based, St. Louis encephalitis virus (SLEV BeH 355964)
Settings: 20 µM, Vero CCL81, MOI 0.1

SMILES: CCCCc1oc2ccccc2c1C(=O)c1cc(I)c(OCCN(CC)CC)c(I)c1 [Amiodarone]
- reduction in viral load relative to vehicle-treated controls: approximately 10 fold
